The target of test [1] is GLP-1 receptor (UniProt P32301). Briefly: [125I]GLP-1 displacement, RINm5F membranes.
The target of another test is neuropeptide Y2 receptor (UniProt P49146). In words: [125I]-human PYY displacement, SK-N-BE membranes.
Test [2] addresses calcitonin receptor. Briefly: calcitonin receptor binding assay.
In the next test the target is amylin receptor (rat). Briefly: 125I-amylin displacement, rat nucleus accumbens membranes.
The target in test [3] is calcitonin receptor. Briefly: cell-based or functional assay.
Test [4] deals with GLP-1 receptor (UniProt P32301). In words: cell-based or functional assay.

Sequences of proteins named here, by UniProt entry; tags and fusion partners are left off. Residues count along the entry.
UniProt P32301, 22-463 limits assumed: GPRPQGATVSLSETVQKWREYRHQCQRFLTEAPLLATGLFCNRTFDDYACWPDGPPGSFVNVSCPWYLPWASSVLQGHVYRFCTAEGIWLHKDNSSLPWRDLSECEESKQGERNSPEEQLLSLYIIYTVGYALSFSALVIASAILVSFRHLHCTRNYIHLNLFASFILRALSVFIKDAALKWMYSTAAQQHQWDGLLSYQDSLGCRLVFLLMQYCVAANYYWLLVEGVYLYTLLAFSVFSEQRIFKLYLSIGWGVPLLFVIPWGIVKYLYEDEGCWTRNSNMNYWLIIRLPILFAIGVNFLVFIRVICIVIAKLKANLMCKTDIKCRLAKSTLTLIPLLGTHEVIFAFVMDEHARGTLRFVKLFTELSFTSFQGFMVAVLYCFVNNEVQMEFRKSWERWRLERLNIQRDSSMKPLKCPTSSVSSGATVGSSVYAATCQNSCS
UniProt P49146, whole entry: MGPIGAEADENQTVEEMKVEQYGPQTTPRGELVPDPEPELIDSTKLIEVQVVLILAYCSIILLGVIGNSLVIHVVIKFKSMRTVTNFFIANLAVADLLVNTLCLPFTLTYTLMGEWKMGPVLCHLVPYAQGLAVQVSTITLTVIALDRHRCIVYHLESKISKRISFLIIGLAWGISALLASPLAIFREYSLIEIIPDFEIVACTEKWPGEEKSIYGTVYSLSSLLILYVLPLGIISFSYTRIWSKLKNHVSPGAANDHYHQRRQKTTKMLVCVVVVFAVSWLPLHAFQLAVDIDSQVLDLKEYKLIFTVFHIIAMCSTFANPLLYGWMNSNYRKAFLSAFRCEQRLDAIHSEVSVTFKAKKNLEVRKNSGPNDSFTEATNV

For “exendin-4(1-28)-βAla-βAla-PYY(31-36) (peptide)”, the IC50 with GLP-1 receptor [1] came out at 0.19 nM; with neuropeptide Y2 receptor it was 1000 nM.
As for “Exendin-4(1-28)-betaAla-betaAla-Amylin(1-7)-11,18Arg-sCT(8-27)-Amylin(33-37) (peptide)”, the Receptor Binding came out at 0.3 with GLP-1 receptor [1], 0.1 with calcitonin receptor [2] and 0.2 with amylin receptor (rat). The Receptor Binding Assay was found to be 0.3 with GLP-1 receptor [1], 0.1 in the test with calcitonin receptor [2] and 0.2 with amylin receptor (rat). Further, in the test with calcitonin receptor [3], the CT cyclase is 7.8.
Regarding “Exendin-4-(1-28)-bAla-bAla-Rat Amylin, amide (peptide)”, the CT cyclase with calcitonin receptor [3] was determined as 108. Also, the GLP1 cyclase in the test with GLP-1 receptor [4] turned out to be 5.8.
“exendin-4(1-28)-βAla-βAla-PYY(25-36) (peptide)”: the IC50 with GLP-1 receptor [1] was determined as 0.16 nM; in the test with neuropeptide Y2 receptor, 7.8 nM.

What is called IC50 is the concentration that gives 50% inhibition. The low end stands for higher potency, the high end for lower potency.

For the origin of these results see patent publication EP2330125A2.
